This note sets out measurements from paper PMC8044178, “Structural basis of norepinephrine recognition and transport inhibition in neurotransmitter transporters” (Nature Communications, 2021).

This series concerns NCCc1ccc(O)c(O)c1. In words: cells, lysate or membranes.

One may read the Km as the concentration of substrate that gives half-maximal velocity.

As to “dDATfc (Drosophila melanogaster; DEL164-191/F471L/L415A/V74A)”, the Michaelis-Menten constant (Km) was found to be 3.6 µM.
